## Measured affinities in a library of Ab-91 heavy chain variants

From the AlphaSeq antibody data of Engelhart et al. 2022 (doi:10.1038/s41597-022-01779-4), copy in the FLAb collection.

Antigen: PDVDLGDISGINAS, a 14-residue peptide of the SARS-CoV-2 spike HR2 region.

Each scFv is VL, a (GGGGS)3 linker, VH, as in the parent Ab-91, and differs from it in the CDRs of the heavy chain only.
VL: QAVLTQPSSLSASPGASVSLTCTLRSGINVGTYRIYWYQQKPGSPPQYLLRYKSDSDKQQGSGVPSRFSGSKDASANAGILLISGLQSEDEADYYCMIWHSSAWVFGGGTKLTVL
VH: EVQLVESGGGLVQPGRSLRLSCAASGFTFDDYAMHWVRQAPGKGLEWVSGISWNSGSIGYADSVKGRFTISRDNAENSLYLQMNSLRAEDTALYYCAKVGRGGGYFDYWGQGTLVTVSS

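Phage display of a naive human antibody library on the peptide gave the parent. AAYL51 was designed without a model: most single CDR substitutions and a random sample of double and triple ones. In AlphaSeq, yeast of one mating type display the scFv and yeast of the other type display the target. The frequency of each diploid, read from paired DNA barcodes, reflects how well the two displayed proteins bind. The ratio of observed to expected reads was calibrated, replicate by replicate, on BCL2-family standards whose Kd was known from biolayer interferometry. The assay was run in three technical replicates.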

Each variant is given by its three heavy chain CDRs, as the data file delimits them; those of the parent are GFTFDDYAMH, GISWNSGSIGYADSVK, VGRGGGYFDY.
Values are log10 of the apparent Kd in nM; lower means stronger binding.
A mean of the replicates is given; it leaves out those without a signal.
A pair that was not seen in that replicate is written "ND"; this usually means weak binding, but a binder can also be missed.
Parent in this assay: reference entry 1.86, copy in this library 0.88.

| # | CDR-H1 | CDR-H2 | CDR-H3 | log10 Kd, replicates | log10 Kd (nM), mean | empty controls |
|---|---|---|---|---|---|---|
| 1 | GNTFDDYAMH | GISWNSGSIGYADSVK | VGRGIGYEDY | ND / ND / ND | ND | 0/9 |
| 2 | GFTFYDYAMH | GISWNSASFGYADSVK | VGRGGGYFDY | 2.92 / 2.03 / 1.36 | 2.10 | 1/9 (2.94) |
| 3 | GFWFDDYAMH | GQSWNSGSIGYADSVK | VGRGGIYFDY | ND / ND / ND | ND | 0/9 |
| 4 | GFTFDDYAKE | GISWNWGSIGYADSVK | VGRGGGYFDY | ND / 5.94 / ND | 5.94 | 4/9 (4.31) |
| 5 | GFLFDQYAMH | GISWLSGSIGYADSVK | VGRGGGYFDY | 3.00 / ND / 3.55 | 3.28 | 1/9 (3.13) |
| 6 | GFTFDDYAMH | GISWNSGSIGYQDSSK | VGRGGGYFDY | 4.23 / 5.20 / 4.46 | 4.63 | 9/9 (4.99) |
| 7 | GFTFDDYAMH | GIIWNSGSIGYADSIK | VGRGGGHFDY | ND / ND / ND | ND | 0/9 |
| 8 | GMTFDDYMMH | GISWNSGSIGYADSVK | VGRGGGYFRY | ND / ND / ND | ND | 2/9 (3.21) |
| 9 | GFTFDDYAMH | GISWMSTSIGYADSVK | VGRGGGRFDY | ND / 3.77 / 2.49 | 3.13 | 0/9 |
| 10 | GFTFDDYAMH | GISWNFGSIGYPDSVK | VGRGGGYFAY | ND / ND / ND | ND | 0/9 |
| 11 | GFTFDDYAMT | GISWNSGGIGHADSVK | VGRGGGYFDY | ND / ND / ND | ND | 0/9 |
| 12 | GMTNDDYAMH | GISWNSGSIGCADSVK | VGRGGGYFDY | ND / ND / ND | ND | 0/9 |
| 13 | GFWFDDYAMH | GISWNPGSIGYADSVK | VGRGGGYFLY | ND / 4.83 / ND | 4.83 | 2/9 (3.08) |
| 14 | GFTFDDYAMH | GISWNSGSIGYADKVK | VGRIGGYFDY | ND / ND / ND | ND | 2/9 (4.74) |
| 15 | GFTFDDYAMH | DISWNSGSIGYADSYK | VGRGGGYVDY | ND / ND / ND | ND | 0/9 |
| 16 | GFTFDDAAMH | GISWNSGSIGYAPSVK | VKRGGGYFDY | ND / ND / ND | ND | 0/9 |
| 17 | GFTFDYYAIH | GISWNMGSIGYADSVK | VGRGGGYFDY | 5.08 / ND / ND | 5.08 | 0/9 |
| 18 | GFTFDDYYMH | DISWNSGSIGYADSVK | VGRGGGYFHY | ND / ND / ND | ND | 1/9 (3.62) |
| 19 | GFTFDDYAMH | GISTNSGSIGYAHSVK | VGRGGGYFDY | 2.55 / 2.41 / 2.24 | 2.40 | 5/9 (5.48) |
| 20 | HFTCDDYAMH | GISWNSGSIGYAGSVK | VGRGGGYFDY | ND / ND / ND | ND | 0/9 |
| 21 | GFTFDDYAMH | GISWNSGSIGWQDSVK | VPRGGGYFDY | 4.85 / ND / ND | 4.85 | 0/9 |
| 22 | GFYFDDYAMH | RISWGSGSIGYADSVK | VGRGGGYFDY | ND / ND / ND | ND | 0/9 |
| 23 | GFTFDDYAMH | GIKQNSGSIGYADSVK | VGRGGGCFDY | 4.03 / ND / ND | 4.03 | 3/9 (4.47) |
| 24 | GFTFDDYAMH | GISWQSGSIGYADSVK | VGYGGGYFYY | 3.82 / ND / 4.22 | 4.02 | 0/9 |
| 25 | GFTTDFYAMH | GISWNSGSIGYADSVK | VGRGGGYFAY | 3.53 / 4.56 / ND | 4.04 | 4/9 (4.43) |
| 26 | GFTFDDYEMH | GISWNSGSIGYADFVF | VGRGGGYFDY | ND / ND / ND | ND | 1/9 (3.88) |
| 27 | GFTFDDYAMH | GISWNSGSIGYADSVK | VGWGGGYFDY | 3.74 / 4.16 / 4.03 | 3.97 | 3/9 (4.10) |
| 28 | GFTFDDYAGH | GIPWNSGSIGYHDSVK | VGRGGGYFDY | 3.92 / ND / ND | 3.92 | 1/9 (4.26) |
| 29 | GYTFDDYAMH | GISWNSGSIHYADSVK | PGRGGGYFDY | 4.49 / 6.42 / 3.98 | 4.96 | 3/9 (3.72) |
| 30 | GFHFDDYAMH | GISWNSGQIRYADSVK | VGRGGGYFDY | 4.72 / 4.74 / ND | 4.73 | 3/9 (4.10) |
| 31 | GFTFDDYAMH | GISWNPGSIGYADSVD | VGRGGWYFDY | ND / ND / ND | ND | 0/9 |
| 32 | GFTFDDYAFH | GISQNSGSIGYADSVF | VGRGGGYFDY | ND / ND / ND | ND | 0/9 |
| 33 | GFTFDDYAMH | GISWNSGSIGYADGVK | VGEGGGYMDY | 1.45 / 2.12 / 2.11 | 1.90 | 0/9 |
| 34 | GFTFVDYAMH | GISWNSGSIGYADSVK | VGRGGFYFDY | 1.69 / 1.51 / 1.22 | 1.47 | 1/9 (4.92) |
| 35 | GFTFDDYYMH | GISWNSGSIGYADSHK | VGRGGDYFDY | ND / ND / ND | ND | 1/9 (4.33) |
| 36 | GFTFDPYAMH | GISWNSGSIGYADGVK | VGRGGGYFHY | ND / 4.64 / 4.78 | 4.71 | 2/9 (4.36) |
| 37 | GFTFDDYAMH | GTSWNSGSIGYRDSVI | VGRGGGYFDY | 5.45 / ND / ND | 5.45 | 0/9 |
| 38 | GFTFDDYAMH | GIFWNSGSEGYADSVK | VSRGGGYFDY | ND / 3.76 / ND | 3.76 | 0/9 |
| 39 | GFTFDDYAMR | GISWNSGSTGYADSVK | VGRGGNYFDY | ND / ND / ND | ND | 0/9 |
| 40 | GFTFDDYAMH | GISWNSGSITYADSHK | VGRDGGYFDY | 4.01 / ND / ND | 4.01 | 2/9 (4.46) |
| 41 | GFTFDDYAMH | GIHWNSGSIGYADSVK | VGRGGGYFDK | 5.62 / ND / ND | 5.62 | 2/9 (3.07) |
| 42 | GFTFDDYAMH | GIEWGSGSIGYADSVK | VGRGGNYFDY | ND / 4.88 / ND | 4.88 | 1/9 (3.94) |
| 43 | GFTFDDYAMH | GISWNSGSIGYAKGVK | VGRGGGYFDS | ND / 3.44 / ND | 3.44 | 1/9 (4.30) |
| 44 | YFTFDDYAMH | GISKNSGSIGYADSVK | VGCGGGYFDY | ND / 4.86 / ND | 4.86 | 0/9 |
| 45 | WFTFDDYAMH | GISWNSGSQLYADSVK | VGRGGGYFDY | 4.20 / ND / ND | 4.20 | 2/9 (5.12) |
| 46 | GFTFDDYAMH | EISKNSGSIGYADSVK | VGRGGGYFDY | 6.11 / ND / ND | 6.11 | 4/9 (4.55) |
| 47 | GFTFDDYAMH | GISWNSGSIENADSVK | VGRGGGCFDY | ND / 4.16 / ND | 4.16 | 0/9 |

For reference, 4 entries of the list once more:

{"CDR-H1": "GFTFDDYAMH", "CDR-H2": "GIHWNSGSIGYADSVK", "CDR-H3": "VGRGGGYFDK", "log10 Kd, replicates": "5.62 / ND / ND", "log10 Kd (nM), mean": "5.62", "empty controls": "2/9 (3.07)"}
{"CDR-H1": "GFTFDDYAMH", "CDR-H2": "GISWNSGSIGYADKVK", "CDR-H3": "VGRIGGYFDY", "log10 Kd, replicates": "ND / ND / ND", "log10 Kd (nM), mean": "ND", "empty controls": "2/9 (4.74)"}
{"CDR-H1": "GNTFDDYAMH", "CDR-H2": "GISWNSGSIGYADSVK", "CDR-H3": "VGRGIGYEDY", "log10 Kd, replicates": "ND / ND / ND", "log10 Kd (nM), mean": "ND", "empty controls": "0/9"}
{"CDR-H1": "GFTFDDYAMH", "CDR-H2": "GISWNSGSITYADSHK", "CDR-H3": "VGRDGGYFDY", "log10 Kd, replicates": "4.01 / ND / ND", "log10 Kd (nM), mean": "4.01", "empty controls": "2/9 (4.46)"}

Nonspecific signal, from three strains lacking the peptide, appeared in 21% of pairings of library AAYL51, centred on 4.54 (5% of these signals below 3.26); values are not corrected for it. The control count says in how many pairings with the empty strains this scFv gave a signal, with their mean in brackets.